Amino acid sequences for entries named in this document (tags omitted).
Desmoglein-3 (Homo sapiens), P32926, UniProt P32926, whole entry, looked up: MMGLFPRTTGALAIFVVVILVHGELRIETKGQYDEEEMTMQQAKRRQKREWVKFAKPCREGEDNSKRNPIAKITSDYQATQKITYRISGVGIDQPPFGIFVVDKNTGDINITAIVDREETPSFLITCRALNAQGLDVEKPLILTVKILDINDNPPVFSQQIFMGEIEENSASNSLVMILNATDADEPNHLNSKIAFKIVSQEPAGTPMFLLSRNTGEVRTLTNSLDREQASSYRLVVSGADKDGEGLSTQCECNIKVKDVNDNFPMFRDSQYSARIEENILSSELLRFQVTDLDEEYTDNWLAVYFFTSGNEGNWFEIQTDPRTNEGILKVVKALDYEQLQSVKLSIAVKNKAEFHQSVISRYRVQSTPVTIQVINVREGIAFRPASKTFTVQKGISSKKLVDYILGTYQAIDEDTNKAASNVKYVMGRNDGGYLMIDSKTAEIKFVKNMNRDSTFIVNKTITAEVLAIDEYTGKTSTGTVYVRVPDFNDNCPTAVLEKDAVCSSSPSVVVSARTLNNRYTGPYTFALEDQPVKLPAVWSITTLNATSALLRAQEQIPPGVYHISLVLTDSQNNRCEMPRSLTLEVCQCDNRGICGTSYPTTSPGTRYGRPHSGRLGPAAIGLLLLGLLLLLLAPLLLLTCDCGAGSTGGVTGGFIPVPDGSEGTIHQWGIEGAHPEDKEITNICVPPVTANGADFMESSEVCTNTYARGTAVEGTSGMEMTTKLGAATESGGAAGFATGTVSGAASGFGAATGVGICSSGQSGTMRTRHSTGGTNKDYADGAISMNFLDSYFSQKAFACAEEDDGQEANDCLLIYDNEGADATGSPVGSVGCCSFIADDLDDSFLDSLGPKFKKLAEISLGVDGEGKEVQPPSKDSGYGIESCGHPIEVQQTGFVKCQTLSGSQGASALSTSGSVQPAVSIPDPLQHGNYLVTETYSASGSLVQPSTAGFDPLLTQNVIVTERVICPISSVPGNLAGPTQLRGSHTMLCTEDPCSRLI
Polyadenylate-binding protein 1 (Homo sapiens), P11940, UniProt P11940, whole entry, looked up: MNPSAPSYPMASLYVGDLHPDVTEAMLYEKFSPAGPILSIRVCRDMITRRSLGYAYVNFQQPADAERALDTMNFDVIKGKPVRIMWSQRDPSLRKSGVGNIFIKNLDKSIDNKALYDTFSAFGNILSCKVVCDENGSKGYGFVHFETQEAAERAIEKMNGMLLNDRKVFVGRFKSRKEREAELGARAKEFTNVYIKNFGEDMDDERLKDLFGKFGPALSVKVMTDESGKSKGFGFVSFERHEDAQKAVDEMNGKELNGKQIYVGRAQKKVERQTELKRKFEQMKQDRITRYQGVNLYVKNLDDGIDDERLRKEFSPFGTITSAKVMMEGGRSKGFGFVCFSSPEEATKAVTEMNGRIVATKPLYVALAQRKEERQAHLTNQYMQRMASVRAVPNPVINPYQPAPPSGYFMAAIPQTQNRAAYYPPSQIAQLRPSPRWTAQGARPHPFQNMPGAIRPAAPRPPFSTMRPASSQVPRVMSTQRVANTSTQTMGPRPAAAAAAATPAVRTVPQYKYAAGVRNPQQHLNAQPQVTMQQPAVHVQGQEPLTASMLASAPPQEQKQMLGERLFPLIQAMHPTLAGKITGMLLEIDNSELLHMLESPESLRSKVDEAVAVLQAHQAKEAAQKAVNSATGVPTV

# Screening results: PubChem, several laboratories
# This is a sample that favours compounds with a hit; in the whole collection about 1.5% have one here.
# UUG fidelity = yeast start codon fidelity modulation; activity score, % at 18.7 µM; actives 0.13% (n = 350,000); S. cerevisiae UUG-firefly luciferase reporter, luminescence/redox ratio; AID 602363;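 active means replicate mean at a twofold rise or more, about +100% in these data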;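 further: firefly luciferase made from a UUG start codon reports start codon fidelity; reporter light over untreated wells divided by growth signal over untreated wells; some hits fall short of that in this replicate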
# Pemphigus Ab inh = inhibitors of pemphigus antibody binding to DSG3, primary screen, biochemical, bead-based, flow cytometry, scFv-GFP; DSG3-coupled beads, scFv-anti-DSG3-GFP binding; active compounds read low; AID 588358, 2011; Desmoglein-3 (Homo sapiens), P32926; 0.48% of 310,000 active; binding (percent of control), % at 10 µM;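 active = binding more than 3 SD below its plate's average and above zero; inconclusive = below that plate limit but binding exactly zero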;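 note: hits lower antibody fragment binding to DSG3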
# PABP1 MLLE inh = inhibitors of PABP1 MLLE–PAM2 peptide binding, primary screen, biochemical, fluorescence polarization, FITC-PAM2, GST-MLLE; inhibition, % at 20 µM; 0.36% of 360,000 active; AID 588489, 2011; in the data active = inhibition above about 35%, passing the limit was not always enough;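 note: plate controls were DMSO wells with GST-MLLE for no effect and wells lacking GST-MLLE protein for full effect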
# eIF4H inh = human eIF4H binding inhibitors, primary screen, translation initiation inhibitor project, biochemical, uHTS, fluorescence polarization. Eukaryotic translation initiation factor 4H (Homo sapiens), Q15056. eIF4H fluorescence polarization binding assay. inhibition, % at 35 µM. 0.94% of 290,000 active. AID 2012, 2009;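 note: calls also rest on retests at 20 µM and on dose response follow-up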
# PABP FP inh = PABP poly(A) RNA binding inhibitors, primary screen, biochemical, fluorescence polarization, uHTS; Polyadenylate-binding protein 1 (Homo sapiens), P11940; calls only at 35 µM; 1% of 290,000 active;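 note: calls also rest on retests at 20 µM and on dose response follow-up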
# * hit, by the source's call; i = inactive; ? = inconclusive; / = not tested or not shown; + = active, no number. Unless noted, the rule behind the calls is not given here.
item	SMILES	PABP FP inh	PABP1 MLLE inh	eIF4H inh
1	O=c1[nH]c(Cc2ccc(F)cc2)nc2scc(-c3ccc(F)cc3)c12	i	22	-5
2	COc1ccc(N2CCN(Cc3nc4scc(-c5ccccc5)c4c(=O)[nH]3)CC2)cc1	i	-79	31
3	C=CCN1C=C2C(=O)C(C)(OC(=O)CC)C(=O)C=C2C=C1CCCC (configuration not stated)	+	23	83
4	Cc1ccc(S(=O)(=O)N2CCCOC2CNC(=O)C(=O)NCCc2ccco2)cc1 (configuration not stated)	/	-4	/
5	COCCN(C(=O)CCC(=O)Nc1cccnc1)C(C(=O)NC1CCCCC1)c1ccccc1 (configuration not stated)	i	1	-5
6	O=C(CCC(=O)N(c1ccccc1)C(C(=O)NC1CCCC1)c1ccncc1)Nc1cccnc1 (configuration not stated)	i	2	5
7	CCOC(=O)c1c(N)sc2c1CCSC2	+	-15	111*
8	CCOC(=O)c1c(N)sc(=S)c2c1CCC2	+	41*	33*
9	CCOC(=O)c1c(N)sc(N)c1C(=O)OCC	i	18	0
10	O=c1c2cc([N+](=O)[O-])ccc2sn1-c1ccccc1	/	37	/

item	UUG fidelity	Pemphigus Ab inh
1	0	101
2	/	49*
3	-23	104
4	-8	82*
5	-11	82*
6	-3	97
7	-19	108
8	-10	/
9	/	94
10	3	66*

# The results go on:
item	SMILES	PABP FP inh	PABP1 MLLE inh	eIF4H inh
11	CC(=O)Nc1ccc2sn(-c3ccccc3)c(=O)c2c1	/	-3	/
12	O=c1c(-c2ccccc2)c[nH]n1-c1cccc([N+](=O)[O-])c1	i	-11	-8
13	N#Cc1ccc2sn(-c3ccccc3)c(=O)c2c1	/	28	/
14	CC(=O)Nc1ccc(-c2ccccc2)s1	+	-139	69
15	CC(=O)Nc1ccc(NC(C)=O)s1	i	21	-5
16	Cc1cc(-c2n[nH]c(=S)n2/N=C/C=C/c2ccco2)n[nH]1	+	-22	93*
17	CC(=C/c1ccccc1)/C=N/n1c(-c2ccco2)n[nH]c1=S	i	-26	-6
18	Cc1cc(-c2n[nH]c(=S)n2/N=C/c2ccc(C)o2)n[nH]1	i	-8	-5
19	CC(/C=N/n1c(-c2cc(C)[nH]n2)n[nH]c1=S)=C\c1ccccc1	+	-30	active
20	S=c1[nH]nc(-c2ccco2)n1/N=C/C=C/c1ccccc1	i	-20	-7

item	UUG fidelity	Pemphigus Ab inh
11	-10	49*
12	/	77
13	-37	41*
14	-9	108
15	-19	96
16	-32	108
17	-24	96
18	/	/
19	/	/
20	-22	98

# (cont.)
item	SMILES	PABP FP inh	PABP1 MLLE inh	eIF4H inh
21	Cc1ccccc1-c1n[nH]c(=S)n1/N=C/C=C/c1ccco1	+	0	82*
22	CO[C@H]1CN(C)C(=O)c2cc(NC(=O)C3CCC3)ccc2OC[C@H](C)N(Cc2ccncc2)C[C@@H]1C	/	/	/
23	O=C(O)c1cc(C(=O)O)cc(-c2ccc(/C=c3/sc4nc5ccccc5n4c3=O)o2)c1	i	/	56*
24	C[C@H]1CN([C@@H](C)CO)C(=O)c2cc(N(C)C)ccc2O[C@H]1CN(C)C	/	/	/
25	CCOC(=O)Cc1csc(NC(=S)NC(=O)c2ccccc2)n1	i	28	7
26	CCOC(=O)Cc1csc(NC(=O)c2sc3nc4cc(C)ccc4cc3c2N)n1	+	23	?
27	CCOC(=O)Cc1csc(NC(=S)NC(=O)c2ccccc2Br)n1	i	39*	5
28	CCOC(=O)Cc1csc(NC(=O)/C=C/c2cccc(Br)c2)n1	+	-20	active
29	CCOC(=O)c1sc(NC(=O)/C=C/c2ccccc2)nc1C	i	26	11*
30	N#C[C@H]1[C@H](c2ccc(-c3cccnc3)cc2)[C@@H](CO)N1C(=O)C1CCC1	/	/	/

item	UUG fidelity	Pemphigus Ab inh
21	-22	96
22	-3	/
23	/	/
24	-4	/
25	/	91
26	/	/
27	-8	102
28	-9	115
29	/	86
30	9	/

# Single records (already shown). Order of values: PABP FP inh	PABP1 MLLE inh	eIF4H inh	UUG fidelity	Pemphigus Ab inh
# Listed for COc1ccc(N2CCN(Cc3nc4scc(-c5ccccc5)c4c(=O)[nH]3)CC2)cc1 : i	-79	31	/	49*
# Listed for Cc1ccc(S(=O)(=O)N2CCCOC2CNC(=O)C(=O)NCCc2ccco2)cc1 (configuration not stated) : /	-4	/	-8	82*
# Listed for CC(=O)Nc1ccc(-c2ccccc2)s1 : +	-139	69	-9	108
# Listed for Cc1ccccc1-c1n[nH]c(=S)n1/N=C/C=C/c1ccco1 : +	0	82*	-22	96

# (cont.)
item	SMILES	PABP FP inh	PABP1 MLLE inh	eIF4H inh
31	COc1cccc(C#Cc2ccc3c(c2)O[C@H](CN(C)C(=O)c2ccccn2)[C@H](C)CN([C@@H](C)CO)S3(=O)=O)c1	/	/	/
32	COc1ccc(C2=C(N)c3ccccc3C2=O)cc1	i	10	-12
33	COC1=C(c2ccccc2)C(=O)c2ccccc2C1=O	i	49*	1
34	O=C(Cc1cccc2ccccc12)NC(NC(=S)Nc1ccccc1Cl)C(Cl)(Cl)Cl (configuration not stated)	i	46*	-7
35	O=C(CCCN1C(=O)/C(=C/c2ccccc2Cl)SC1=S)NCCCN1CCOCC1	i	41*	-9
36	O=C(/C=C/c1ccc(O)c(O)c1)O[C@H](Cc1ccc(O)c(O)c1)C(=O)O	+	/	98*
37	O=C(O)/C=C/c1ccc(O)c(O)c1	i	-1	-11
38	NC(=S)Nc1ccc(S(=O)(=O)c2ccc(NC(N)=S)cc2)cc1	i	43*	-14
39	CC(=O)Nc1ccc(S(=O)(=O)c2ccc(N)cc2)cc1	i	11	6
40	CC(O)CNc1nc2sc3c(c2c(=O)n1Cc1ccco1)CCCCC3 (configuration not stated)	i	-3	0

item	UUG fidelity	Pemphigus Ab inh
31	-5	/
32	1	101
33	/	109
34	-11	117
35	-19	/
36	/	/
37	-4	96
38	-28	100
39	-8	92
40	/	/

# New compounds follow:
item	SMILES	PABP FP inh	PABP1 MLLE inh	eIF4H inh
41	NC(=O)Cn1c(=O)n(Cc2ccco2)c(=O)c2c3c(sc21)CCCCC3	+	12	98*
42	O=c1c2c3c(sc2nc(NCCOCCO)n1Cc1ccco1)CCCCC3	+	12	100*
43	C[C@@H]1CN([C@@H](C)CO)C(=O)c2cc(C#CCC3CCCC3)cnc2O[C@@H]1CN(C)S(=O)(=O)c1cccs1	/	/	/
44	CCCNC(=O)C[C@H]1CC[C@H]2[C@H](COc3ccc(NC(=O)c4cc(C)on4)cc3C(=O)N2C)O1	/	/	/
45	C[C@@H]1CN([C@H](C)CO)C(=O)c2cc(NS(=O)(=O)c3ccc(Cl)cc3)ccc2O[C@H]1CN(C)C(=O)Nc1ccc2c(c1)OCO2	/	/	/
46	Cc1ccc(N2C(=O)C3C4C=CC(CNC(=S)Nc5cccc(Cl)c5)(O4)C3C2=O)cc1 (configuration not stated)	i	41*	4
47	Cc1ccc(N2C(=O)C3C4C=CC(CNC(=S)Nc5ccc(Cl)cc5)(O4)C3C2=O)cc1 (configuration not stated)	i	27	2
48	C[C@H](CO)N1C[C@H](C)[C@@H](CN(C)C(=O)NC2CCCCC2)OCCCC[C@H](C)Oc2ccc(NC(=O)Nc3ccccc3)cc2C1=O	/	/	/
49	CCCCN1/C(=C/c2cccc[n+]2C)Sc2cc(NC(C)=O)ccc21	+	-142	0
50	CCN1/C(=C/c2cccc[n+]2C)Sc2ccc(OC)cc21	i	-140	-9

item	UUG fidelity	Pemphigus Ab inh
41	/	/
42	/	/
43	9	/
44	30	/
45	4	/
46	-15	124
47	-15	122
48	-5	/
49	-7	104
50	8	90
